Assay: Phase 1 MAD study of ALT-801: adverse events (TEAEs), safety overview
Settings: M2 1.8 mg ALT-801 (N = 9)

CC[C@H](C)[C@H](NC(=O)[C@H](Cc1ccccc1)NC(=O)[C@H](CCC(=O)O)NC(=O)[C@@H]1CCCCNC(=O)CC[C@H](NC(=O)[C@H](CC(=O)O)NC(=O)[C@H](CC(C)C)NC(=O)[C@H](Cc2ccc(O)cc2)NC(=O)[C@H](CCCCN)NC(=O)[C@H](CO)NC(=O)[C@H](Cc2ccc(O)cc2)NC(=O)[C@H](CC(=O)O)NC(=O)[C@H](CO)NC(=O)[C@@H](NC(=O)[C@H](Cc2ccccc2)NC(=O)[C@@H](NC(=O)CNC(=O)[C@H](CCC(N)=O)NC(=O)C(C)(C)NC(=O)[C@@H](N)Cc2c[nH]cn2)[C@@H](C)O)[C@@H](C)O)C(=O)N[C@@H](CCCCNC(=O)[C@H]2O[C@@H](OCCCCCCCCCCCCCCCCCC(=O)O)[C@H](O)[C@@H](O)[C@@H]2O)C(=O)N[C@@H](C)C(=O)N[C@@H](C)C(=O)N1)C(=O)N[C@@H](CCC(N)=O)C(=O)N[C@@H](Cc1c[nH]c2ccccc12)C(=O)N[C@@H](CC(C)C)C(=O)N[C@@H](CC(C)C)C(=O)N[C@@H](CCC(N)=O)C(=O)N[C@H](C(N)=O)[C@@H](C)O [ALT-801, pemvidutide]
TEAE Cough, maximum severity PLT, subjects %: (0.0%)
TEAE Cough, maximum severity PLT, subjects n: 0
TEAE Cough, maximum severity Severe, subjects %: (0.0%)
TEAE Cough, maximum severity Severe, subjects n: 0
TEAE Dermatitis contact, maximum severity Mild, subjects %: (0.0%)
TEAE Dermatitis contact, maximum severity Mild, subjects n: 0
TEAE Dermatitis contact, maximum severity Moderate, subjects %: (0.0%)
TEAE Dermatitis contact, maximum severity Moderate, subjects n: 0
TEAE Dermatitis contact, maximum severity PLT, subjects %: (0.0%)
TEAE Dermatitis contact, maximum severity PLT, subjects n: 0
TEAE Dermatitis contact, maximum severity Severe, subjects %: (0.0%)
TEAE Dermatitis contact, maximum severity Severe, subjects n: 0
TEAE Eczema, maximum severity Mild, subjects %: (33.3%)
TEAE Eczema, maximum severity Mild, subjects n: 3
TEAE Eczema, maximum severity Moderate, subjects %: (0.0%)
TEAE Eczema, maximum severity Moderate, subjects n: 0
TEAE Eczema, maximum severity PLT, subjects %: (0.0%)
TEAE Eczema, maximum severity PLT, subjects n: 0
TEAE Eczema, maximum severity Severe, subjects %: (0.0%)
TEAE Eczema, maximum severity Severe, subjects n: 0
TEAE Hot flush, maximum severity Mild, subjects %: (0.0%)
TEAE Hot flush, maximum severity Mild, subjects n: 0
TEAE Hot flush, maximum severity Moderate, subjects %: (0.0%)
TEAE Hot flush, maximum severity Moderate, subjects n: 0
TEAE Hot flush, maximum severity PLT, subjects %: (0.0%)
TEAE Hot flush, maximum severity PLT, subjects n: 0
TEAE Hot flush, maximum severity Severe, subjects %: (0.0%)
TEAE Hot flush, maximum severity Severe, subjects n: 0
TEAE Menorrhagia, maximum severity PLT, subjects %: (0.0%)
TEAE Menorrhagia, maximum severity PLT, subjects n: 0
TEAE Oropharyngeal pain, maximum severity Mild, subjects %: (0.0%)
TEAE Oropharyngeal pain, maximum severity Mild, subjects n: 0
TEAE Oropharyngeal pain, maximum severity Moderate, subjects %: (0.0%)
TEAE Oropharyngeal pain, maximum severity Moderate, subjects n: 0
TEAE Oropharyngeal pain, maximum severity PLT, subjects %: (0.0%)
TEAE Oropharyngeal pain, maximum severity PLT, subjects n: 0
TEAE Oropharyngeal pain, maximum severity Severe, subjects %: (0.0%)
TEAE Oropharyngeal pain, maximum severity Severe, subjects n: 0
TEAE Papule, maximum severity Mild, subjects %: (0.0%)
TEAE Papule, maximum severity Mild, subjects n: 0
TEAE Papule, maximum severity Moderate, subjects %: (0.0%)
TEAE Papule, maximum severity Moderate, subjects n: 0
TEAE Papule, maximum severity PLT, subjects %: (0.0%)
TEAE Papule, maximum severity PLT, subjects n: 0
TEAE Papule, maximum severity Severe, subjects %: (0.0%)
TEAE Papule, maximum severity Severe, subjects n: 0
TEAE Pruritus, maximum severity Mild, subjects %: (11.1%)
TEAE Pruritus, maximum severity Mild, subjects n: 1
TEAE Pruritus, maximum severity Moderate, subjects %: (0.0%)
TEAE Pruritus, maximum severity Moderate, subjects n: 0
TEAE Pruritus, maximum severity PLT, subjects %: (0.0%)
TEAE Pruritus, maximum severity PLT, subjects n: 0
TEAE Pruritus, maximum severity Severe, subjects %: (0.0%)
TEAE Pruritus, maximum severity Severe, subjects n: 0
TEAE Rash, maximum severity Mild, subjects %: (22.2%)
TEAE Rash, maximum severity Mild, subjects n: 2
TEAE Rash, maximum severity Moderate, subjects %: (0.0%)
TEAE Rash, maximum severity Moderate, subjects n: 0
TEAE Rash, maximum severity PLT, subjects %: (0.0%)
TEAE Rash, maximum severity PLT, subjects n: 0
TEAE Rash, maximum severity Severe, subjects %: (0.0%)
TEAE Rash, maximum severity Severe, subjects n: 0
TEAE Respiratory, thoracic and mediastinal disorders, maximum severity Mild, subjects %: (0.0%)
TEAE Respiratory, thoracic and mediastinal disorders, maximum severity Mild, subjects n: 0
TEAE Respiratory, thoracic and mediastinal disorders, maximum severity Moderate, subjects %: (0.0%)
TEAE Respiratory, thoracic and mediastinal disorders, maximum severity Moderate, subjects n: 0
TEAE Respiratory, thoracic and mediastinal disorders, maximum severity PLT, subjects %: (0.0%)
TEAE Respiratory, thoracic and mediastinal disorders, maximum severity PLT, subjects n: 0
TEAE Respiratory, thoracic and mediastinal disorders, maximum severity Severe, subjects %: (0.0%)
TEAE Respiratory, thoracic and mediastinal disorders, maximum severity Severe, subjects n: 0
TEAE Skin and subcutaneous tissue disorders, maximum severity Mild, subjects %: (44.4%)
TEAE Skin and subcutaneous tissue disorders, maximum severity Mild, subjects n: 4
TEAE Skin and subcutaneous tissue disorders, maximum severity Moderate, subjects %: (0.0%)
TEAE Skin and subcutaneous tissue disorders, maximum severity Moderate, subjects n: 0
TEAE Skin and subcutaneous tissue disorders, maximum severity PLT, subjects %: (0.0%)
TEAE Skin and subcutaneous tissue disorders, maximum severity PLT, subjects n: 0
TEAE Skin and subcutaneous tissue disorders, maximum severity Severe, subjects %: (0.0%)
TEAE Skin and subcutaneous tissue disorders, maximum severity Severe, subjects n: 0
TEAE Skin lesion, maximum severity Mild, subjects %: (11.1%)
TEAE Skin lesion, maximum severity Mild, subjects n: 1
TEAE Skin lesion, maximum severity Moderate, subjects %: (0.0%)
TEAE Skin lesion, maximum severity Moderate, subjects n: 0
TEAE Skin lesion, maximum severity PLT, subjects %: (0.0%)
TEAE Skin lesion, maximum severity PLT, subjects n: 0
TEAE Skin lesion, maximum severity Severe, subjects %: (0.0%)
TEAE Skin lesion, maximum severity Severe, subjects n: 0
TEAE Vascular disorders, maximum severity Mild, subjects %: (0.0%)
TEAE Vascular disorders, maximum severity Mild, subjects n: 0
TEAE Vascular disorders, maximum severity Moderate, subjects %: (0.0%)
TEAE Vascular disorders, maximum severity Moderate, subjects n: 0

Source: patent US12171806B2, “Therapeutic regimens and methods for lowering blood glucose and/or body weight using GLP-1R and GCGR balanced agonists” (priority 2021, dated 2024)
